Experiments:
tdTomato A549 tumors [1] = test: In vivo tumor growth, WT tdTomato A549 tumors; set-up: species or system NSG mice; settings: A′PB MΦ day 0 plus twice per week tail-vein targeting Ab after day-3
Protocol: Establishment of A549 tumors In Vivo. CD47 knockdown and control cells were dissociated from tissue culture flasks using 10 mM EDTA in PBS. 10^6 cells per injection were suspended in 100 μL ice cold PBS and 25% Matrigel (BD) and injected subcutaneously in the flank of non-obese diabetic/severe combined immunodeficient (NOD/SCID) mice with null expression of interleukin-2 receptor gamma chain (NSG mice). Treatment groups were a mix of male and female mice. All animal experiments were planned and performed according to IACUC protocols.
In Vivo Tumor Imaging. Mice were anesthetized via inhalation of isoflurane at 3 L/min and maintained at 1.5 L/min. Images were acquired using a Perkin Elmer IVIS Spectrum with excitation and emission filters set at 535 nm and 580 nm respectively optimized for tdTomato imaging. […] Mouse fur was soaked with ethanol to reduce auto fluorescence prior to imaging. Three Fluorescent standards were used to subtract background fluorescence and calibrate imager. Images were analyzed in Image J where the length and width of the td tomato tumor was measured. […]
Adoptive Transfer of NSG Bone Marrow. […] Cells were then washed, resuspended in 0.1% FBS/PBS, counted and volume adjusted to allow injection of 106 cells. Remaining cells were analyzed by flow cytometry to establish initial composition. […]

tdTomato A549 tumors [2] = settings: 50-fold higher doses; Hsu et al. 2010; cited from earlier work

Question: For Cetuximab, which “tumor shrinkage by day 10” value (tdTomato A549 tumors [1]) is on record?
Answer: −15%

Question: And the “effect of injections on A549 tumor growth” value (tdTomato A549 tumors [2])?
Answer: delayed growth of A549 tumors by about half
